Laboratory results taken from ChEMBL document CHEMBL1130110 (J Med Chem, 1997).

The chains behind the UniProt entries cited, without tags or fusion partners.
UniProt P30082, whole entry: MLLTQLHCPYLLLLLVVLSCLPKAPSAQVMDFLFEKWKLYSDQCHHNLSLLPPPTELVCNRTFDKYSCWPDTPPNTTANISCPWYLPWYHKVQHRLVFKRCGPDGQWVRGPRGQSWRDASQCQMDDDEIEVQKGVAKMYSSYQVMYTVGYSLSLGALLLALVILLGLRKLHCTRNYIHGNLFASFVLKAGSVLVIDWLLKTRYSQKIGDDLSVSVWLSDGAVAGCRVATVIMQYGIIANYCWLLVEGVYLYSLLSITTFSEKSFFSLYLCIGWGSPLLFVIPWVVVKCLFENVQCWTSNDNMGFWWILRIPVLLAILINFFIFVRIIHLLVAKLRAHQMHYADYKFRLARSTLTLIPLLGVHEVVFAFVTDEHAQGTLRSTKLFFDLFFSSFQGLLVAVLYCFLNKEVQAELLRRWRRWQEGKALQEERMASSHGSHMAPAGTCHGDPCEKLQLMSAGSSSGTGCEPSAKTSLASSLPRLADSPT

How the values were obtained:
[1] = biological target: Glucagon receptor (Rattus norvegicus) (UniProt P30082); experiment: Percent stimulation of cAMP production over basal.; assay type: functional; set-up: concentration or dose not given beside the values
[2] = biological target: Glucagon receptor (Rattus norvegicus) (UniProt P30082); experiment: Relative binding potency expressed as receptor binding IC50 for glucagon by receptor binding IC50 for compound

## GLUCAGON
[1]
  Activity: 100%
[2]
  Activity: 100%
